Key:
CHO cells [1] = assay: cell viability in SF culture (trypan blue exclusion); assay type: cell-based, Chinese hamster; details: experiment 2; selenium above 3 μM (FIG. 7)
Procedure: Experiments (using different illustrative glycoproteins) were performed in shake flask (SF) systems, where […] SFs with a final volume of 125 ml were used.
The experiment was performed in 500 ml SF with a final volume of 125 ml. After 14 days of fed batch bioprocess, harvests were collected, centrifuged, sterile filtered through a PES membrane and immediately subjected to a single step AC purification and a subsequent analysis of C-terminal α-amidation by […].

CHO cells [2] = details: 5 L BR; 2.31 μM versus 0.17 μM selenium (FIG. 11A)

SMILES: O=[Se]([O-])[O-].[Na+].[Na+] [selenium, sodium selenite]
- toxicity to the cell culture (CHO cells [1]): toxic
- toxicity to the cells (growth, viability) (CHO cells [2]): not toxic

Source: patent US10196601B2, “Cell culture medium and process for controlling α-amidation and/or C-terminal amino acid cleavage of polypeptides” (LEK PHARMACEUTICALS D.D., priority 2013, dated 2019)
